The record followed here is BindingDB's records for 2172538.

Amino acid sequences for entries named in this document (tags omitted).
UniProt Q99720, whole entry, looked up: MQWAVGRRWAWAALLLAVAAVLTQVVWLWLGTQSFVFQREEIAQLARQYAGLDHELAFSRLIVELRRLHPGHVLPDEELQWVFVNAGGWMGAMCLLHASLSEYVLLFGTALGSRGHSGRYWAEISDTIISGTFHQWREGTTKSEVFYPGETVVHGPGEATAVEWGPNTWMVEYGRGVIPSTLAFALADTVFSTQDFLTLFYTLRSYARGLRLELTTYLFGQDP

One assay deals with T1, Sigma non-opioid intracellular receptor 1 (Homo sapiens, UniProt Q99720). Nature of the assay: Affinity of compound to Sigma opioid receptor labelled with [3H](+)-3-PPP.
The term Ki denotes a measure of affinity in units of concentration, obtained from inhibition or displacement. `CN(CCc1ccc2c(c1)OCO2)C1CCCC[C@H]1N1CCCC1` (some centres not stated) came in with a Ki of 90 nM.
Same read-out and setting: the value for `CN(C(=O)Cc1ccc2c(c1)OCO2)C1CCCC[C@H]1N1CCCC1` (some centres not stated) was 7210 nM; that for `CN(C(=O)Cc1ccc2ccccc2c1)C1CCCC[C@@H]1N1CCCC1` (some centres not stated) was 1370 nM.

The target of the next assay is T1, Sigma non-opioid intracellular receptor 1. Nature of the assay: Binding affinity for sigma opioid receptor using [3H](+)-3-PPP as radioligand.
Usually IC50 stands for the concentration at which inhibition is half-maximal. A high value points to a need for much substance. Regarding `CN(C(=O)Cc1ccc([N+](=O)[O-])cc1)C1CCCC[C@@H]1N1CCCC1` (some centres not stated), the 50% inhibitory concentration (IC50) was 2370 nM.
Same read-out and setting: to `CN(C(=O)Cc1ccc(Br)cc1)C1CCCC[C@@H]1N1CCCC1` (some centres not stated) belongs 228 nM.
Same read-out and setting: the value for `CN(C(=O)Cc1ccc(Cl)cc1)C1CCCC[C@@H]1N1CCCC1` (some centres not stated) was 224 nM; that for `CN(C(=O)Cc1cccc2ccccc12)C1CCCC[C@H]1N1CCCC1` (some centres not stated) was 77 nM.
The same measure, in the same setting: the value for `CN(C(=O)Cc1cc(Cl)c(Cl)cc1N)C1CCCC[C@@H]1N1CCCC1` (some centres not stated) was 12 nM; that for `CN(C(=S)Nc1ccc(Cl)c(Cl)c1)C1CCCC[C@@H]1N1CCCC1` (some centres not stated) was 3270 nM; that for `CN(C(=O)Cc1cccs1)C1CCCC[C@H]1N1CCCC1` (some centres not stated) was 1520 nM.
Consider `CN(CCc1ccccc1)C1CCCC[C@H]1N1CCCC1` (some centres not stated), for which the IC50 was found to be 125 nM.
Still for that read-out and setting: to `CN([C@H]1CCCC[C@H]1N1CCCC1)S(=O)(=O)c1ccccc1` belongs 966 nM.
Take `CN(C(=O)Cc1cccc([N+](=O)[O-])c1)C1CCCC[C@@H]1N1CCCC1` (some centres not stated): the half-maximal inhibitory concentration (IC50) was found to be 1610 nM.
On the same count and under the same terms, to `CN(C(=O)Nc1ccc(Cl)c(Cl)c1)C1CCCC[C@@H]1N1CCCC1` (some centres not stated) belongs 5300 nM; to `CN(CCc1ccc2ccccc2c1)C1CCCC[C@H]1N1CCCC1` (some centres not stated), 37 nM.
Still for that read-out and setting: the value for `CN(C(=O)Cc1cc(Cl)c(Cl)cc1[N+](=O)[O-])C1CCCC[C@@H]1N1CCCC1` (some centres not stated) was 5950 nM.
Still for that read-out and setting: the value for `CN(C(=O)Cc1ccsc1)C1CCCC[C@H]1N1CCCC1` (some centres not stated) was 2100 nM.
The molecule `CN(C(=O)Cc1ccccc1)C1CCCC[C@@H]1N1CCCC1` (some centres not stated) yielded a concentration for half-maximal inhibition (IC50) of 1160 nM.
For the molecule `CN(C(=O)OCc1ccccc1)C1CCCC[C@@H]1N1CCCC1` (some centres not stated), the IC50 was found to be 928 nM.
For the molecule `CN(C(=O)Cc1ccc(Cl)cc1Cl)[C@@H]1CCCC[C@@H]1N1CCCC1`, the IC50 was 278 nM.
The same measure, in the same setting: to `CN(C(=O)Cc1ccccc1Cl)C1CCCC[C@@H]1N1CCCC1` (some centres not stated) belongs 870 nM; to `CN(C(=O)Cc1c(Cl)cccc1Cl)C1CCCC[C@@H]1N1CCCC1` (some centres not stated), 1380 nM.
